Data on five compounds can be found in article PMC4963535, “Structure-guided development of heterodimer-selective GPCR ligands” (Nature Communications, 2016).

Sequences of proteins named here, by UniProt entry; tags and fusion partners are left off. Residues count along the entry.
UniProt P14416, whole entry: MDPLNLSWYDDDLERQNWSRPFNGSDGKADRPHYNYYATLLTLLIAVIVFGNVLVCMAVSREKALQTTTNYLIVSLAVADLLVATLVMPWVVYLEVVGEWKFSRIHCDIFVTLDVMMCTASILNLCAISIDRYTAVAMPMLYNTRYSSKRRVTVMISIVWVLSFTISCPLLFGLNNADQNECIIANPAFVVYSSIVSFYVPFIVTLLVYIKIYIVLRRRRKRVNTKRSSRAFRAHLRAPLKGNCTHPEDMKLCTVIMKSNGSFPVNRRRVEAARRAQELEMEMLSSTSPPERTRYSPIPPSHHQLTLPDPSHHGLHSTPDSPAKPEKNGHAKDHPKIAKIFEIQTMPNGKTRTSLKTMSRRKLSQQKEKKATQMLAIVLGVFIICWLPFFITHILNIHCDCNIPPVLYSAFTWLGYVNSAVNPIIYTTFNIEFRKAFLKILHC
UniProt P14416, 1-414 isoform P14416-2: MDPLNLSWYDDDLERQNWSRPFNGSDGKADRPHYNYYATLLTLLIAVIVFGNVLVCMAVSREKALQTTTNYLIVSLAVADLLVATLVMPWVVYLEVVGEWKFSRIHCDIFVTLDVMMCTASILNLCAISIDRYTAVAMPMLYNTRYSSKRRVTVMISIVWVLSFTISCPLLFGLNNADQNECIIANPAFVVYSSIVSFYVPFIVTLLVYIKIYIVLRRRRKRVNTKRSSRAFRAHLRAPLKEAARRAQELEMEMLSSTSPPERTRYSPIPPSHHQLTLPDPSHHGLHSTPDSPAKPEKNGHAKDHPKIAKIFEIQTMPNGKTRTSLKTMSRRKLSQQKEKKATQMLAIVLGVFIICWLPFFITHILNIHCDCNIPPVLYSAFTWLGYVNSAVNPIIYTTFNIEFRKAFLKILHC
UniProt P30989, whole entry: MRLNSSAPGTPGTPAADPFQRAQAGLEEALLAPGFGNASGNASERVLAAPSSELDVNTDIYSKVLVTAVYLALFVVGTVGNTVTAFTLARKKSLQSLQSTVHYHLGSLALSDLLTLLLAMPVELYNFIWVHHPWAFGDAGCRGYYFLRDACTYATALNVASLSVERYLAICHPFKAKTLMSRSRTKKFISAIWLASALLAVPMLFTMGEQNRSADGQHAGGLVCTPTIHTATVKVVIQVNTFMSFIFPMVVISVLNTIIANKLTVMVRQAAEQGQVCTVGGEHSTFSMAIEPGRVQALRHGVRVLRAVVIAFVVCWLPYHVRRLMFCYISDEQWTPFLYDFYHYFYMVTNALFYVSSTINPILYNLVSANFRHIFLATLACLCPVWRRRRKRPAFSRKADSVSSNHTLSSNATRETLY

In one experiment the target is T1, human D2LR (Homo sapiens, UniProt P14416).
T1 construct: host or cells: HEK 293 T
Nature of the experiment: [3H]spiperone displacement, membranes from HEK 293 T cells transiently transfected with D2LR. It counts as binding. The following applies: D2LR monoexpression; mean ± s.e.m.

A further experiment concerns the target T2, hD2LR (Homo sapiens, UniProt P14416).
T2 construct: expressed in transfected cells
Put plainly: [3H]spiperone displacement, membranes from CHO cells stably expressing hD2LR. It counts as binding.

The target in another experiment is T3, hD2SR (Homo sapiens, UniProt P14416).
T3 construct: expressed in transfected cells
Put plainly: [3H]spiperone displacement, membranes from CHO cells stably expressing hD2SR. It counts as binding.

Another experiment concerns the target D2LR/NTS1R (Homo sapiens, UniProt P14416+P30989). Put plainly: [3H]spiperone displacement, membranes from HEK 293 T cells coexpressing D2LR and NTS1R. The following applies: Ki (monophasic competition curves), coexpressed D2LR/NTS1R, D2LR:NTS1R 1:2; mean ± s.e.m.
In the next experiment the target is T4, D2SR (Homo sapiens, UniProt P14416).
T4 construct: expressed in transfected cells; host or cells: HEK 293 T
Nature of the experiment: cAMP BRET assay (CAMYEL biosensor), HEK 293 T cells expressing D2SR. It is filed as cell-based. Conditions: 10 μM forskolin.

For the next experiment, the target named is T5, PAR2/NTS1R (Homo sapiens, UniProt P30989).
T5 construct: host or cells: HEK 293 stably expressing EA-tagged β-arrestin-2
Nature of the experiment: β-arrestin-2 recruitment (DiscoveRx PathHunter), ProLink-tagged PAR2 coexpressed with NTS1R. It counts as cell-based.

The target in the next experiment is NTS1R (Homo sapiens, UniProt P30989). Put plainly: cAMP BRET assay (CAMYEL biosensor), HEK 293 T cells expressing NTS1R. It counts as cell-based. Set-up: expressed in transfected cells; host or cells: HEK 293 T.

One may read the Ki as a measure of affinity in units of concentration, obtained from inhibition or displacement. Low readings indicate higher affinity, high ones lower affinity. `CC[C@H](C)[C@H](NC(=O)CN(CCc1ccc(O)cc1)C(=O)[C@@H]1CCCN1C(=O)[C@H](CCCNC(=N)N)NC(=O)[C@H](CCCNC(=N)N)NC(=O)CCOCCOCCOCCOCCOCCOCCNC(=O)c1ccc(-c2ccc(-n3cc(CCCCN4CCN(c5ccccc5OC)CC4)nn3)cc2)cc1)C(=O)N[C@@H](CC(C)C)C(=O)O` [2e]: the Ki on human D2LR was 23 ± 5 nM; on hD2LR, 56 ± 13 nM; at hD2SR, 23 ± 2 nM.

In turn, `CCCN(CCCCc1cn(-c2ccc(-c3ccc(C(=O)NCCOC)cc3)cc2)nn1)C1Cc2ccccc2C1` [3g] displayed a Ki on D2LR/NTS1R of 42 ± 12 nM.

As for `CC[C@H](C)[C@H](NC(=O)CN(CCc1ccc(O)cc1)C(=O)[C@@H]1CCCN1C(=O)[C@H](CCCNC(=N)N)NC(=O)[C@H](CCCNC(=N)N)NC(=O)CCOCCOCCOCCOCCOCCOCCNC(=O)CCOCCOCCOCCOCCOCCOCCNC(=O)c1ccc(-c2ccc(-n3cc(CCCCN4CCN(c5ccccc5OC)CC4)nn3)cc2)cc1)C(=O)N[C@@H](CC(C)C)C(=O)O` [2f], the values for the inhibition constant Ki on human D2LR, at hD2LR and on hD2SR were 40 ± 6 nM, 160 ± 100 nM and 90 ± 57 nM, respectively.

As to `CC[C@H](C)[C@H](NC(=O)[C@H](Cc1ccc(O)cc1)NC(=O)[C@@H]1CCCN1C(=O)[C@H](CCCNC(=N)N)NC(=O)[C@@H](N)CCCNC(=N)N)C(=O)N[C@@H](CC(C)C)C(=O)O` [NT(8-13), reference compound], the “effect on forskolin-induced cAMP accumulation, cells expressing D2R only (in words)” value at D2SR is given as “remained without significant effects”.

For `CCCN1CCC[C@@H]2Cc3n[nH]cc3C[C@H]21` [quinpirole, reference compound], the “β-arrestin-2 recruitment, PAR2/NTS1R (in words)” value at PAR2/NTS1R is “entirely inactive”. In addition, the “cAMP response, cells expressing NTS1R only, absence of FSK (in words)” value on NTS1R is “do not elicit any response”.
